Test [1] in a line: NCI Yeast Anticancer Drug Screen. Data for the rad50 strain (AID 155).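 Further: 0% = growth of vehicle-only cultures of the same strain.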 The settings on record: S. cerevisiae rad50 strain growth inhibition, hits give high values.
Test [2] can be described thus: NCI Yeast Anticancer Drug Screen. Data for the mec2-1 strain (AID 157). The settings on record: S. cerevisiae mec2-1 strain, hits give high values.
Test [3] can be described thus: NCI Yeast Anticancer Drug Screen. Data for the sgs1 mgt1 strain (AID 161).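 Further: 0% = growth of cultures given vehicle only.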 The note with it: S. cerevisiae sgs1 mgt1 strain, hits give high values.
Test [4] is described as follows: NCI Yeast Anticancer Drug Screen. Data for the cln2 rad14 strain (AID 165).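 Further: 0% = growth equal to vehicle treated cultures.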 The note with it: S. cerevisiae cln2 rad14 strain, hits give high values.
Test [5] is described as follows: NCI Yeast Anticancer Drug Screen. Data for the bub3 strain (AID 167). The settings on record: S. cerevisiae bub3 mutant strain, hits give high values.
Test [6] can be described thus: NCI Yeast Anticancer Drug Screen. Data for the mlh1 rad18 strain (AID 175). The settings on record: S. cerevisiae mlh1 rad18 strain growth inhibition, hits give high values.
Where [7] appears, read: at 5.0 µM (retest, dose inferred, filed as 0.5).
The mark [8] stands for this setting: at 50.0 µM (retest, dose inferred, filed as 5.0).

Values joined by “and” are separate entries in the source; they are usually repeats but may differ in a detail not shown here. Identical values can stand only once. The entries are a selection whose mix differs from that of the whole data set. The source holds several records for some structures; these can differ, active in one and inactive in another. Active and inactive are the calls of the source. No stated cut-off is given here; in the data, active means growth inhibition above about 70%; inactive means the rest.

Turning to `CCCCP(=O)(Cl)N(CCCl)CCCl` (stereo unspecified), the growth inhibition was inactive: 6% in test [1] (setting [7]); inactive: 17% in test [1] (setting [8]); inactive: 8.1% in test [1] (at 50.0 µM); inactive: -2% in test [2] (setting [7]); inactive: 1% in test [2] (setting [8]); inactive: 12.8% in test [2] (at 50.0 µM). The growth inhibition in test [3] (setting [7]) is inactive: -34%; in test [3] (setting [8]), inactive: 1%; in test [3] (at 50.0 µM) it was inactive: 4.75%; in test [4] (setting [7]), inactive: -1%; in test [4] (setting [8]), inactive: 2%; in test [4] (at 50.0 µM), active: 71.4%. Also, the growth inhibition in test [5] (setting [7]) was inactive: -2%; in test [5] (setting [8]), inactive: -3%; in test [5] (at 50.0 µM), inactive: -7.2%; in test [6] (setting [7]) it was inactive: -1%; in test [6] (setting [8]), inactive: 4%; in test [6] (at 50.0 µM), inactive: 25.3%.
As to `ClCCN1CCCCC1CCl` (stereo unspecified), the growth inhibition is inactive: 1% in test [1] (at 1.2 µM); inactive: 4% in test [1] (at 3.7 µM); inactive: 6% in test [1] (setting [7]); inactive: 30% in test [1] (at 11.0 µM); active: 84% in test [1] (at 33.0 µM); active: 88% in test [1] (setting [8]). Also, the growth inhibition in test [1] (at 50.0 µM) was active: 73.7%; in test [1] (at 100.0 µM), active: 95%; in test [2] (at 1.2 µM), inactive: -1%; in test [2] (at 3.7 µM) it was inactive: 2%; in test [2] (setting [7]), inactive: 8%; in test [2] (at 11.0 µM), inactive: 9%. The growth inhibition in test [2] (at 33.0 µM) is inactive: 46%; in test [2] (setting [8]) it was inactive: 69%; in test [2] (at 50.0 µM) it was inactive: 33.6%; in test [2] (at 100.0 µM), active: 95%; in test [3] (setting [7]) it was inactive: -4%; in test [3] (setting [8]) it was inactive: 56%. Also, the growth inhibition in test [3] (at 50.0 µM) is inactive: 13.6%; in test [4] (setting [7]), inactive: 4%; in test [4] (setting [8]) it was active: 86%; in test [4] (at 50.0 µM), inactive: 36.9%; in test [5] (at 1.2 µM), inactive: 0%; in test [5] (at 3.7 µM), inactive: -1%. For the same compound, the growth inhibition in test [5] (setting [7]) was inactive: -1%; in test [5] (at 11.0 µM), inactive: -1%; in test [5] (at 33.0 µM), inactive: -1%; in test [5] (setting [8]), inactive: 15%; in test [5] (at 50.0 µM) it was inactive: -19.4%; in test [5] (at 100.0 µM) it was inactive: 34%. Moreover, the growth inhibition in test [6] (setting [7]) was inactive: 9%; in test [6] (setting [8]) it was active: 92%; in test [6] (at 50.0 µM), active: 77.1%.
As for `O=C(c1ccc(Br)cc1)C(Br)Br`, the growth inhibition was inactive: 40% in test [1] (setting [7]); active: 91% in test [1] (setting [8]); active: 91.8% in test [1] (at 50.0 µM); inactive: 51% in test [2] (setting [7]); active: 97% in test [2] (setting [8]); active: 94% in test [2] (at 50.0 µM). The growth inhibition in test [3] (setting [7]) was active: 99%; in test [3] (setting [8]), active: 99%; in test [3] (at 50.0 µM), active: 94.3%; in test [4] (setting [7]) it was active: 74%; in test [4] (setting [8]), active: 100%; in test [4] (at 50.0 µM), active: 93.8%. Moreover, the growth inhibition was active: 99% in test [5] (setting [7]); active: 99% in test [5] (setting [8]); active: 93.2% in test [5] (at 50.0 µM); inactive: 38% in test [6] (setting [7]); active: 98% in test [6] (setting [8]); active: 92.3% in test [6] (at 50.0 µM).
Take `Cc1cccc(C[N+](C)(CCCl)CCCl)c1[N+](=O)[O-]`: the growth inhibition in test [1] (at 1.2 µM) was inactive: 31%; in test [1] (at 3.7 µM) it was inactive: 56%; in test [1] (setting [7]) it was inactive: 30%; in test [1] (at 11.0 µM), active: 86%; in test [1] (at 33.0 µM) it was active: 95%; in test [1] (setting [8]), active: 89%. For the same compound, the growth inhibition in test [1] (at 50.0 µM) is active: 84.3%; in test [1] (at 100.0 µM) it was active: 96%; in test [2] (at 1.2 µM) it was inactive: -4%; in test [2] (at 3.7 µM) it was inactive: -5%; in test [2] (setting [7]) it was inactive: 5%; in test [2] (at 11.0 µM), inactive: 23%. For the same compound, the growth inhibition in test [2] (at 33.0 µM) is active: 88%; in test [2] (setting [8]), active: 90%; in test [2] (at 50.0 µM), active: 85.8%; in test [2] (at 100.0 µM) it was active: 95%; in test [3] (setting [7]), inactive: 12%; in test [3] (setting [8]), inactive: 65%. For the same compound, the growth inhibition in test [3] (at 50.0 µM) was inactive: 69%; in test [4] (setting [7]), inactive: 36%; in test [4] (setting [8]) it was active: 88%; in test [4] (at 50.0 µM), active: 79.7%; in test [5] (at 1.2 µM) it was inactive: -15%; in test [5] (at 3.7 µM) it was inactive: -32%. For the same compound, the growth inhibition in test [5] (setting [7]) is inactive: -6%; in test [5] (at 11.0 µM) it was inactive: -29%; in test [5] (at 33.0 µM) it was inactive: 8%; in test [5] (setting [8]), inactive: 65%; in test [5] (at 50.0 µM), inactive: 29.7%; in test [5] (at 100.0 µM) it was active: 80%. The growth inhibition in test [6] (setting [7]) was inactive: 47%; in test [6] (setting [8]) it was active: 93%; in test [6] (at 50.0 µM), active: 86.5%.
Regarding `O=[N+]([O-])c1ccc(C[N+]([O-])(CCCl)CCCl)cc1`, the growth inhibition in test [1] (at 50.0 µM) was inactive: 21.2%; in test [2] (at 50.0 µM), inactive: 24.6%; in test [3] (at 50.0 µM), inactive: 57.5%; in test [4] (at 50.0 µM), inactive: 43.6%; in test [5] (at 50.0 µM), inactive: 44.5%; in test [6] (at 50.0 µM), inactive: 34.6%.
In the case of `CC1=CC(=O)C(N(CCCl)CCCl)=CC1=O`, the growth inhibition in test [1] (setting [7]) was active: 91%; in test [1] (setting [8]) it was inactive: 56%; in test [1] (at 50.0 µM), inactive: 40.1%; in test [2] (setting [7]), inactive: 64%; in test [2] (setting [8]), inactive: 29%; in test [2] (at 50.0 µM), inactive: 65.2%. In addition, the growth inhibition is inactive: 69% in test [3] (setting [7]); active: 71% in test [3] (setting [8]); inactive: 58.9% in test [3] (at 50.0 µM); inactive: 63% in test [4] (setting [7]); inactive: 62% in test [4] (setting [8]); inactive: 61.6% in test [4] (at 50.0 µM). Further, the growth inhibition in test [5] (setting [7]) was inactive: 43%; in test [5] (setting [8]), inactive: 41%; in test [5] (at 50.0 µM), inactive: 6.1%; in test [6] (setting [7]), active: 89%; in test [6] (setting [8]) it was inactive: 44%; in test [6] (at 50.0 µM) it was active: 84.5%.
Regarding `COc1cc(CN(CCBr)CCBr)cc(OC)c1OC`, the growth inhibition was inactive: -13.2% in test [1] (at 50.0 µM); inactive: -2.65% in test [2] (at 50.0 µM); inactive: -7.55% in test [3] (at 50.0 µM); inactive: -31.9% in test [4] (at 50.0 µM); inactive: 19.5% in test [5] (at 50.0 µM); inactive: -4.35% in test [6] (at 50.0 µM).
Consider `Fc1cccc(CBr)c1`, for which the growth inhibition is inactive: -1.05% in test [1] (at 50.0 µM); inactive: -9.8% in test [2] (at 50.0 µM); inactive: -6.55% in test [3] (at 50.0 µM); inactive: 14.5% in test [4] (at 50.0 µM); inactive: 8.8% in test [5] (at 50.0 µM); inactive: 3.3% in test [6] (at 50.0 µM).
With `N#CC(C#N)=Cc1ccc2c(c1)OCO2`, the growth inhibition in test [1] (at 50.0 µM) was inactive: 26.2% and inactive: -6.35%; in test [2] (at 50.0 µM) it was inactive: 4.9% and inactive: 15.3%; in test [3] (at 50.0 µM), inactive: 12.6% and inactive: 27.1%; in test [4] (at 50.0 µM) it was inactive: 12.2% and inactive: -34.6%; in test [5] (at 50.0 µM) it was inactive: -0.65% and inactive: -2.15%; in test [6] (at 50.0 µM), inactive: 12.7% and inactive: -4.75%.
Take `C[N+](CCCl)(CCCl)Cc1ccc(S(C)(=O)=O)cc1`: the growth inhibition in test [1] (at 50.0 µM) was inactive: -12.1%; in test [2] (at 50.0 µM), inactive: -17.2%; in test [3] (at 50.0 µM), inactive: -10.2%; in test [4] (at 50.0 µM), inactive: 6.45%; in test [5] (at 50.0 µM), inactive: -0.2%; in test [6] (at 50.0 µM) it was inactive: 3.8%.
Regarding `COC(=O)c1ccc(C)c(N(CCCl)CCCl)c1`, the growth inhibition in test [1] (at 50.0 µM) was inactive: -27.1%; in test [2] (at 50.0 µM), inactive: -1.1%; in test [3] (at 50.0 µM), inactive: 9.05%; in test [4] (at 50.0 µM), inactive: 17.2%; in test [5] (at 50.0 µM) it was inactive: 2.45%; in test [6] (at 50.0 µM) it was inactive: -42.4%.
